The chains behind the UniProt entries cited, without tags or fusion partners.
UniProt P15428, whole entry: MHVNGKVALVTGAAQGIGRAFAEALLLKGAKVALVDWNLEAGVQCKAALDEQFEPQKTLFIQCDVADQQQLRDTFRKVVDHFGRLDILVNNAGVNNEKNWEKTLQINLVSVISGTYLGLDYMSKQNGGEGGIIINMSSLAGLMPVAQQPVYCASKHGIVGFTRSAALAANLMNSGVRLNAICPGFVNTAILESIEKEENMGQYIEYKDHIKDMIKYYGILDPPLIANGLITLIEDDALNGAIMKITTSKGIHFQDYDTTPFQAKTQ

According to US9790233B2, “Compositions and methods of modulating 15-PGDH activity” (CASE WESTERN RESERVE UNIVERSITY, priority 2012, dated 2017):

Columns and labels:
[1] = target: T1, 15-PGDH (Homo sapiens (Human), UniProt P15428); assay: Shift of melting temperature of recombinant 15-PGDH (SYPRO Orange); format: binding; details: FIG. 14
[2] = system: 15-PGDH mRNA; assay: 15-PGDH mRNA levels by real-time PCR; format: cell-based; details: treated colon cancer cell lines
[3] = system: A549 cells; assay: PGE2 levels in the medium of IL1-beta stimulated A549 cells; format: cell-based; details: IL1-beta 23 hours, compound added for the last 5 hours;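 further: PGE2 in the collected culture medium quantified by enzyme immunoassay (ELISA), with data drawn from three independent experiments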
[4] = target: T1, 15-PGDH; assay: 15-PGDH protein levels in treated cells (western blot, immuno-fluorescence); format: cell-based
[5] = system: 15-PGDH protein; assay: as above; format: cell-based; details: V400-M3-2-72 cells
[6] = target: T1, 15-PGDH; assay: Total 15-PGDH activity in compound treated cell lines (tritium method); format: cell-based; details: FIG. 13

15-PGDH protein levels ([4]; V503 cells, immuno-fluorescence and western blot): increase in 15-PGDH protein levels
15-PGDH protein levels (western blot) ([4]; colon cell lines, FIG. 3): increases 15-PGDH protein levels
SMILES: COc1ccc(-c2cc(C(F)(F)F)n3nc(C(=O)N4CCCCC4)cc3n2)cc1
direct binding to recombinant 15-PGDH (melting temperature shift) [1]: show evidence of direct binding to 15-PGDH
15-PGDH mRNA levels (real-time PCR) [2]: do not in general alter 15-PGDH mRNA levels
PGE2 levels in medium [3]: clear inhibition of 15-PGDH activity
levels of 15-PGDH protein (wt-PGDH) expressed from cDNA vector ([4]; 5 μM, V400-S3-2-32 cells): increases levels of 15-PGDH protein (wt-PGDH)
protein levels of catalytically dead mutant 15-PGDH (mu-PGDH) [5]: increases protein levels of a catalytically dead mutant 15-PGDH
15-PGDH activity in treated cells [6]: increasing 15-PGDH activity in most cell lines
